Target: Cyclin-dependent kinase 5/CDK5 activator 1 (Homo sapiens, UniProt Q00535)
Experiment: Inhibition of Cyclin-dependent kinase 5-p35nck5a
Type: protein-complex assay
Summary of the method: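 Recombinant CDK5 and p25 (truncated p35), each expressed in E. coli as a GST fusion and glutathione-agarose purified, mixed in equal amounts. Assayed in buffer C with histone H1 and 15 µM [γ-33P]ATP, 10 min at 30 °C. Read by P81 filter capture and scintillation counting. Expressed as % of uninhibited activity. Duplicates; IC50 determined.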

The chains behind the UniProt entries cited, without tags or fusion partners.
UniProt Q00535, whole entry: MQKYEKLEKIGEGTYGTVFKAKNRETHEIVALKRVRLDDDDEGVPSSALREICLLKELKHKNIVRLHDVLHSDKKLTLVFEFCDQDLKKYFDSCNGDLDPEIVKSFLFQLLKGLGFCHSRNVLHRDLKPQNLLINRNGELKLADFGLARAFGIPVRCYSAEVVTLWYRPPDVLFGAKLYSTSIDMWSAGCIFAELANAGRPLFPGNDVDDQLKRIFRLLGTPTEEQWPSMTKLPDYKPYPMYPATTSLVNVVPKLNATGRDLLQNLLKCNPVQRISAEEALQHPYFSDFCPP

IC50: 5 µM
SMILES: O=C1Nc2ccccc2/C1=C1/Nc2ccccc2C1=O [INDIRUBIN]

Source: ChEMBL document CHEMBL1149190, “Generation of new protein kinase inhibitors utilizing cytochrome p450 mutant enzymes for indigoid synthesis” (J Med Chem, 2004)
